These results are taken from patent US12613237B2, “Biosensors for detecting arrestin signaling” (MONTANA MOLECULAR, LLC, priority 2018, dated 2026).

Assay [1] addresses Angiotensin II receptor type 1 (Homo sapiens, UniProt P30556). Briefly: BArr 5A arrestin biosensor fluorescence, time-lapse imaging of transfected HEK293T cells. As to conditions: Angiotensin II receptor type 1, normalized fluorescence (FIG. 4).
For assay [2], the target named is T1, Angiotensin II receptor type 1 (AT1) (Homo sapiens, UniProt P30556).
T1 construct: expressed in transfected cells; host or cells: HEK293T
Briefly: Red DAG biosensor fluorescence (Gq signaling) in AT1-expressing HEK293T cells. Format: cell-based. As to conditions: AT1-expressing HEK293T cells (FIG. 5A/5B).

The target in assay [3] is T2, angiotensin II receptor (Homo sapiens, UniProt P30556).
T2 construct: expressed in transfected cells; host or cells: HEK293T
Format: cell-based. The note with it: 15 minute time span, HEK293T cells (FIG. 7A).

The target of assay [4] is T1, Angiotensin II receptor type 1 (AT1). Format: cell-based. As to conditions: AT1-expressing HEK293T cells, BArr L1-3 B8 (FIG. 5A/5B).

Angiotensin II: the “tau of BArr 5A biosensor response” value in assay [1] amounted to 16 s. In addition, the “response in the DAG sensor (red fluorescence)” value in assay [2] is “rapid increase in DAG”. Moreover, the “arrestin sensor response over time (speed)” value in assay [3] is on record as “fastest response”. In addition, in assay [4], the “response in the arrestin sensor (green fluorescence)” value is reported as “rapid response”.
